{"source": "patent US20090029984A1", "about": "(priority 2005, published 2009)", "system": "mice", "note": "Like-named read-outs stand apart in the source and are kept apart here.", "data": [{"smiles": "CCOC(=O)c1c(C)cc2nc(COC(=O)NCCO)n(-c3ccccc3S(=O)(=O)NC)c(=O)c2c1C", "note": "[Compound 1a, 2-(2-Hydroxy-ethylcarbamoyloxymethyl)-5,7-dimethyl-3-(2-methylsulfamoylphenyl)-4-oxo-3,4-dihydro-quinazoline-6-carboxylic acid ethyl ester]", "values": [{"measurement": "% of MPE", "setting": "Compound 1a 0.1 μmol/kg i.v. co-administered with Fentanyl 0.05 μmol/kg", "result": 33.2, "unit": "%"}, {"measurement": "% of MPE", "setting": "Compound 1a 0.3 μmol/kg i.v. co-administered with Fentanyl 0.05 μmol/kg", "result": 37.1, "unit": "%"}, {"measurement": "% of MPE", "setting": "Compound 1a 1.0 μmol/kg i.v. co-administered with Fentanyl 0.05 μmol/kg", "result": 53.9, "unit": "%"}, {"measurement": "combination versus opioid on its own (in words)", "setting": "Compound 1a 1.0 μmol/kg with morphine, fentanyl or codeine, Dunn's post-test P<0.05", "result": "significantly different"}]}]}
